# Legend:
# Protein sequences, listed by entry. Tags and fused reporters are not part of them. Lines headed by an entry give the natural chain unless they say otherwise; changes in a name come on top.
# UniProt P41143, whole entry, looked up: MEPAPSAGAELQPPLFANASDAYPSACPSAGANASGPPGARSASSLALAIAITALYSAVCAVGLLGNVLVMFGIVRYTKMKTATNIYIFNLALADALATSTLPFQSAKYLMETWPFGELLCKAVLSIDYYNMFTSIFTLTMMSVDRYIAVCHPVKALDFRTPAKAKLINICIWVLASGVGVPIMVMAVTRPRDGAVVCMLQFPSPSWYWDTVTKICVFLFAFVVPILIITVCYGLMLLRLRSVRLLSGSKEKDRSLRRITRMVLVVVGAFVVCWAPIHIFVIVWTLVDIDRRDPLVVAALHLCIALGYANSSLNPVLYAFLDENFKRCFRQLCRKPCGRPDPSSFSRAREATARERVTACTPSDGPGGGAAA
# UniProt P41145: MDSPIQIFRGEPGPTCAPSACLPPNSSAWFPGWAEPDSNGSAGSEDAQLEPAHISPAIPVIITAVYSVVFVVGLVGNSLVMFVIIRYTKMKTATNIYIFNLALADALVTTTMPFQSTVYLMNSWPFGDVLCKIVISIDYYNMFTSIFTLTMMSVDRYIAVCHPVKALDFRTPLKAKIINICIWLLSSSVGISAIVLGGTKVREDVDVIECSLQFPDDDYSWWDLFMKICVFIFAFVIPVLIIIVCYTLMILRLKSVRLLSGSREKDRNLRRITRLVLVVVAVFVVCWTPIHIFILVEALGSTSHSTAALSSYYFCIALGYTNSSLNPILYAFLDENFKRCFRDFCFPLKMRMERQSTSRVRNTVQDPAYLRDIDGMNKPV
# UniProt P21333: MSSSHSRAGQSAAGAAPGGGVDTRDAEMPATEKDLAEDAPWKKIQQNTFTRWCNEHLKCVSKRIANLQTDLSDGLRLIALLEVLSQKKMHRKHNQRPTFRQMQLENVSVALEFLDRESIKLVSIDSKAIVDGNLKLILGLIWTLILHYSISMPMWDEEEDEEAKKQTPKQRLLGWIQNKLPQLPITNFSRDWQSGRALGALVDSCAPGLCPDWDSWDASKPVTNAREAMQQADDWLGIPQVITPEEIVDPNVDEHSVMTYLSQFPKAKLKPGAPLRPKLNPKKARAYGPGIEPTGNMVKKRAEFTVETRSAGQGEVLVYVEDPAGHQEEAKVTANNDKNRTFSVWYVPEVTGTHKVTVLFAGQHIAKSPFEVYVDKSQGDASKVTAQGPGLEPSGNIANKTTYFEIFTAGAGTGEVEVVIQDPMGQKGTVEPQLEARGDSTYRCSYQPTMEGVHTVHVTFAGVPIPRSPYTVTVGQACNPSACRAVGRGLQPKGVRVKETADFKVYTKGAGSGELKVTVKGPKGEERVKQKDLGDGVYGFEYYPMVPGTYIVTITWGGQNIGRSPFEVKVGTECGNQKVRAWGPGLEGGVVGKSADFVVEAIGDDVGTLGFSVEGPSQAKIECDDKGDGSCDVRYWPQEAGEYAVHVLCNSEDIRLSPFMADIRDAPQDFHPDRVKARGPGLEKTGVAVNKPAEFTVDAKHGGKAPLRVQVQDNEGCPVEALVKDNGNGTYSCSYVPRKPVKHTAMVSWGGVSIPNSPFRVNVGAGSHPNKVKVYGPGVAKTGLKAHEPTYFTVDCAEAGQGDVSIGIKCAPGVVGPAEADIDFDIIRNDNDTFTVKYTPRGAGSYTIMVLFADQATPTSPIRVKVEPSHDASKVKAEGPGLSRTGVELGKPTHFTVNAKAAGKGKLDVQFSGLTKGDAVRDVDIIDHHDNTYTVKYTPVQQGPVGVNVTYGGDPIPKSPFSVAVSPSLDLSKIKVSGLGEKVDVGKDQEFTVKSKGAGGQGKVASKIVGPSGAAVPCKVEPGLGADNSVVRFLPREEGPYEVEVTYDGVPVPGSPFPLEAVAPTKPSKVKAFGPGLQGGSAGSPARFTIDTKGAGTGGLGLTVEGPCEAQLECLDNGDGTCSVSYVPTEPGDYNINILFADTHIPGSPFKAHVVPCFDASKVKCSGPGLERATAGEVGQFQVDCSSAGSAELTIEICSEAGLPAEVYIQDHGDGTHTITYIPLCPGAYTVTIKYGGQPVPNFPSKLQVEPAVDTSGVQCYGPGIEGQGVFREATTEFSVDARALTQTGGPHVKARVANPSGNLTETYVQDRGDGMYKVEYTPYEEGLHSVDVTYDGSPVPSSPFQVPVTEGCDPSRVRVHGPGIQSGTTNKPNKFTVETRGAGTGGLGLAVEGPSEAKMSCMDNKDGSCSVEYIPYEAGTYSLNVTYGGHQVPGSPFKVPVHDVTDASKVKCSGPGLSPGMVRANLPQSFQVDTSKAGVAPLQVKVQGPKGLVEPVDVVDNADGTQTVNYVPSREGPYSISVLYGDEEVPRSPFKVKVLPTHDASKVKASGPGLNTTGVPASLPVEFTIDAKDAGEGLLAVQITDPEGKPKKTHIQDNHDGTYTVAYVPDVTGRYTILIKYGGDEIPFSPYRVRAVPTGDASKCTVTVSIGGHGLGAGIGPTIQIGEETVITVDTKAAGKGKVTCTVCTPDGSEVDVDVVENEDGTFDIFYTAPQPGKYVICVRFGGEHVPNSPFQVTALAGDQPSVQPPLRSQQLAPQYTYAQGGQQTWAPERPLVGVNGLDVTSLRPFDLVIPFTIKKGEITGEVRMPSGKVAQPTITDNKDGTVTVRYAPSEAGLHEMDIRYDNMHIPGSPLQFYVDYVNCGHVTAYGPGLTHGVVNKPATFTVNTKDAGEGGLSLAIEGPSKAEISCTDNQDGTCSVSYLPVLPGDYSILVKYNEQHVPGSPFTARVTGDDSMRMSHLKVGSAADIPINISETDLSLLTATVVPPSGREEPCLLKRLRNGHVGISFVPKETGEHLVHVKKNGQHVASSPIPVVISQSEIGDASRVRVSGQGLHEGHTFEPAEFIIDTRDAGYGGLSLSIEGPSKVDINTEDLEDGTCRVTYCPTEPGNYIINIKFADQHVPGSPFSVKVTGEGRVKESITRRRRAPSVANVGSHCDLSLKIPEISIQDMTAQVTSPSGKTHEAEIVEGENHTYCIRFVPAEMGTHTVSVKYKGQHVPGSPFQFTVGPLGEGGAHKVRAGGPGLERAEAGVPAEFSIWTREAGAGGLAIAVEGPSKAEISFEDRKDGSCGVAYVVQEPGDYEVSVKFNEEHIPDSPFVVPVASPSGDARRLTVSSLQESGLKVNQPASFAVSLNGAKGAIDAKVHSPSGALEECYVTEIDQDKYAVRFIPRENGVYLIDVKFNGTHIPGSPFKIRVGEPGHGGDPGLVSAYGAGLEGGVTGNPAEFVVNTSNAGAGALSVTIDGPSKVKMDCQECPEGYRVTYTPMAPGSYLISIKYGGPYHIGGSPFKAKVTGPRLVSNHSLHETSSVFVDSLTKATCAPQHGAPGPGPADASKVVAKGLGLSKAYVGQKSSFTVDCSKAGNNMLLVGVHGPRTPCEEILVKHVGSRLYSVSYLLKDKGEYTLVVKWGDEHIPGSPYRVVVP
# UniProt P35372, whole entry, looked up: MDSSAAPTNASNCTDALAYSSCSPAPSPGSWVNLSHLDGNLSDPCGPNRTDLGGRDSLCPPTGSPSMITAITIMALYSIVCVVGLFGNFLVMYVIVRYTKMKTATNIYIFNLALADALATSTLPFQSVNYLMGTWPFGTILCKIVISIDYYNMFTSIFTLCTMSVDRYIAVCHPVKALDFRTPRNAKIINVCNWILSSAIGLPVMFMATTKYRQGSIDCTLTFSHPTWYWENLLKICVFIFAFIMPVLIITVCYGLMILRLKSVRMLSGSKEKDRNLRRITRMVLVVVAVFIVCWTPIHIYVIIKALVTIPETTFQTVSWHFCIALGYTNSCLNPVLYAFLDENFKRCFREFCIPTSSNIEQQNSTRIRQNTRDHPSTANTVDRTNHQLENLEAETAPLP
# delta-opioid receptor = delta-opioid receptor (Homo sapiens, UniProt P41143); conditions: as reported in Goodman & Gilman, 12th ed., Table 18-1-3; cited from earlier work
# kappa-opioid receptor = kappa-opioid receptor (Homo sapiens, UniProt P41145); conditions: as reported in Goodman & Gilman, 12th ed., Table 18-1-3; cited from earlier work
# [1] = target: FLNA pentapeptide of SEQ ID NO: 1 (Bn-VAKGL) (Homo sapiens, UniProt P21333); assay: FITC-NLX-based FLNA screening assay (inhibition of FITC-naloxone binding to Bn-VAKGL)
# mu opioid receptor (MOR) = mu opioid receptor (MOR) (Homo sapiens, UniProt P35372); conditions: as reported in Goodman & Gilman, 12th ed., Table 18-1-3; cited from earlier work
smiles,measurement,setting,value
CO[C@]12CC[C@@]3(C[C@@H]1C(C)(C)O)[C@H]1Cc4ccc(O)c5c4[C@@]3(CCN1CC1CC1)[C@H]2O5,RECEPTOR DELTA: antagonism/agonism and relative potency,delta-opioid receptor,−−
same,RECEPTOR KAPPA: antagonism/agonism and relative potency,kappa-opioid receptor,−−−
same,Percent Inhibition,[1]; 1 μM compound (n = 5),45.9%
same,Percent Inhibition,[1]; 10 μM compound (n = 4),65.8%
same,RECEPTOR MU: antagonism/agonism and relative potency,mu opioid receptor (MOR),−−−

# From patent US20140094482A1, “BENZAZOCINE-RING COMPOUND INHIBITION OF TAU HYPERPHOSPHORYLATION” (priority 2012, published 2014)
